Mono(S-2'-Hydroxypropyl)-γ-cyclodextrin [Example 5]
solubility in water: > 50%
